## AlphaSeq binding of Ab-14 heavy chain variants to a spike HR2 peptide

Reference: Li et al. 2023, doi:10.1038/s41467-023-39022-2. File: FLAb, binding data.

Antigen: PDVDLGDISGINAS, a 14-residue peptide of the SARS-CoV-2 spike HR2 region.

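The parent was found by panning a naive human phage display library on the peptide. These sequences belong to a second round, designed from the earlier measurements on random variants of the parent. Several design methods are mixed in this list. Affinity was read by AlphaSeq, a pooled yeast mating assay with surface-displayed partners. The frequency of each diploid, read from paired DNA barcodes, reflects how well the two displayed proteins bind. A regression on co-assayed BCL2-family reference pairs converts the normalised counts of each replicate to an apparent Kd. The assay was run in six technical replicates.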

Each scFv is VH, a 15-residue (Gly4Ser)3 linker, VL, as in the parent Ab-14, and differs from it in the CDRs of the heavy chain only.
VH: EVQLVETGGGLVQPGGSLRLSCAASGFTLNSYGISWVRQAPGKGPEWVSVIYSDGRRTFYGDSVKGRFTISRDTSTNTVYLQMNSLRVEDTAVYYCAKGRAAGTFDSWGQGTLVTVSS
VL: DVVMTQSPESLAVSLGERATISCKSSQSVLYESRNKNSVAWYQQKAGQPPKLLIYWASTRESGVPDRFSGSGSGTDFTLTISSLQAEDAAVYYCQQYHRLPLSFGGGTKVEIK

Each variant is given by its three heavy chain CDRs, as the data file delimits them; those of the parent are GFTLNSYGIS, VIYSDGRRTFYGDSVK, GRAAGTFDS. The read-out is the apparent dissociation constant on a log10 scale (nM): the lower, the stronger. Averages over replicates are reported, and they cover detected replicates only. A pair that was not seen in any replicate is written "nd"; this usually means weak binding, but a binder can also be missed. Entries are sorted by rising average, undetected variants last. The range of this assay differs from that of the first round, and the authors advise against merging the two.

CDR-H1 | CDR-H2 | CDR-H3 | mean log10 Kd (nM) | detected | control signals
GFDLNEYGIS | VIYADGMRTAYSDDVK | GNVAGTFDM | -0.68 | 6/6 | 0/18
GFDLDEYGIS | VIYADGQRTAYADDVK | GETAGTFDV | -0.64 | 6/6 | 0/18
GFTLNSYGIS | VIYADGRRTFYGDSVK | GQTAGTFDS | -0.63 | 6/6 | 0/18
GFDLNEYGIS | VIYADGQRTAYADKVK | GNVAGTFDL | -0.52 | 6/6 | 0/18
GFDLNEYGIS | VIYADGRRTFYSDSVK | GNVAGTFDE | -0.46 | 6/6 | 1/18
GFDLNEYGIS | VIYADGLRTSYDDSVK | GELAGTFDQ | -0.38 | 6/6 | 0/18
GFDLNEYGIS | VIYADGMRTAYTDSVK | GGNAGTFDL | -0.34 | 6/6 | 0/18
GFDLNEYGIS | VIYADGMRTFYADDVK | GETAGTFDV | -0.21 | 6/6 | 0/18
GFDLNEYGIS | VIYADGMRTAYTDNVK | GEVAGTFDV | -0.21 | 6/6 | 0/18
EFDIQEYGIS | VIYADGKREAYKDKFK | GNVAGTFDA | -0.13 | 6/6 | 0/18
GFDLDEYGIS | VIYADGRRTFYQDSVK | GQEAGTFDQ | -0.11 | 6/6 | 0/18
GFTLNEFGIS | VIYSDGRRTFYTDSVK | GRTAGTFDS | 0.03 | 6/6 | 0/18
GFDLDEYGIS | VIYADGVRTAYADSVK | GEVAGTFDM | 0.08 | 6/6 | 0/18
GFDLNEYGIS | VIYADGIRTAYADSVK | GNVAGTFDM | 0.09 | 6/6 | 0/18
GFTLNDYGIS | VIYSDGRRTFYADSVK | GKAAGTFDS | 0.09 | 6/6 | 1/18
GFDLDEYGIS | VIYADGQRTAYADDVK | GNVAGTFDI | 0.09 | 5/6 | 0/18
GFDLNSYGIS | VIYSDGRRTFYGDSVK | GEEAGTFDS | 0.16 | 6/6 | 0/18
GFDLNSYGIS | VIYSDGRRTFYKDSVK | GQAAGTFDS | 0.24 | 6/6 | 0/18
GFDLNSYGIS | VIYSDGRRTFYSDRVK | GKAAGTFDS | 0.27 | 6/6 | 1/18
GFTLNDYGIS | VIYSDGRRTYYGDSVK | GRTAGTFDS | 0.27 | 6/6 | 0/18
GFSLNSYGIS | VIYSDGRRTFYGDSVK | GVAAGTFDT | 0.37 | 6/6 | 0/18
GFTLNSYGIS | VIYADGRRTFYGDSVK | GRTAGTFDA | 0.43 | 6/6 | 0/18
GFNLNSYGIS | VIYSDGRRTFYGDSVK | GRTAGTFDS | 0.47 | 6/6 | 0/18
GFTLNSYGIS | VIYSDGRRTFYHDSVK | GKVAGTFDS | 0.57 | 6/6 | 0/18
GFDLNEYGIS | VIYADGLRTAYADSVK | GENAGTFDM | 0.60 | 6/6 | 0/18
GFTLNSYGIS | VIYSDGRRTFYGDFVK | GREAGTFDS | 0.62 | 1/6 | 1/18
GFSLNSYGIS | VIYSDGRRTAYQDSVK | GRAAGTFDS | 0.62 | 6/6 | 0/18
GFTLNSYGIS | VIYSDGIRTFYGDSVK | GRVAGTFDT | 0.81 | 6/6 | 0/18
GFDLDQYGIS | VIYADGRRTAYANDVK | GKYAGSMLS | 0.93 | 6/6 | 0/18
GFSLNTYGIS | VIYSDGRRTFYKDSVK | GKTAGTFDS | 1.00 | 5/6 | 0/18
GFDLNEYGIS | VIYADGSRTFYADSVK | GEIAGTFDQ | 1.09 | 2/6 | 0/18
KFDLNSYGIS | VIYSDGRRTFYQDSVK | GRNAGTFDS | 1.12 | 6/6 | 0/18
GFTLNEYGIS | VIYSDGRRTMYSDSVK | GRAAGTFDS | 1.14 | 6/6 | 0/18
GFNLNTYGIS | VIYSDGRRTFYGDSVK | GEAAGTFDS | 1.21 | 3/6 | 0/18
YFDLNSYGIS | VIYSDGRRTFYADSVK | GNAAGTFDS | 1.39 | 6/6 | 0/18

Further variants, results first:

mean log10 Kd (nM) | detected | control signals | CDR-H1 | CDR-H2 | CDR-H3
1.57 | 1/6 | 0/18 | GFTLNSYGIS | VIYSDGRRTSYGDSVK | GRAAGTNDS
1.81 | 4/6 | 0/18 | GFTLNSYGIS | VIYSDGRRTAYGDSVK | GRAAGTFES
1.86 | 6/6 | 0/18 | GFDLNEYGVS | VIYADGHRVQYTEDVK | GGNSGAVDN
2.01 | 6/6 | 3/18 | GFQLNSYGIS | VIYSDGRRTYYGDSVK | GRAAGTFDS
2.19 | 5/6 | 1/18 | GFTLSSYGIS | VIYSDGRRTFYSDSVK | GRAGGTFDS
2.59 | 2/6 | 1/18 | GFPLNSYGIS | VIYSDGRRTFYGDSVK | GRAAGTFRS
3.01 | 2/6 | 1/18 | GFTLNDYGIS | VIYSDGRRTFYHDSVK | GRAAGTFKS
3.29 | 1/6 | 1/18 | GFDLNEYGIS | VIYADGQRTAYADSVK | GKNAGFFDS
4.16 | 1/6 | 0/18 | GFTLNSYGIS | VIYSDGRRTFYGDSVK | GSAATTFDS
nd | 0/6 | 1/18 | GFELNSYGIS | VIYSDGRRTAYSDDVK | ARAALTFDS
nd | 0/6 | 0/18 | GFTLNEYGIS | VIYSDGRITFYTDSVK | GRFAGTFFS
nd | 0/6 | 0/18 | GFTNNSYGIS | VIYSDGRRTFYGDSVK | GRIIGTFDS
nd | 0/6 | 0/18 | GFTLNSYGIS | VIYSDGRRTFYSDSVK | GRAGGSFDS
nd | 0/6 | 0/18 | GFNLGEYGIS | VIYADGVRTAYVDKVK | GFNQVDSLI
nd | 0/6 | 0/18 | GFTLNDYGIS | VIYSDGRRTFYSDSVK | GRAAGFFMS
nd | 0/6 | 0/18 | GFQLDEYGIS | VIYADGLRTVYKDTVK | GSDTGLFMI
nd | 0/6 | 1/18 | GFNLSEYGIS | VIYADGNRTYYAPNVK | GQNLDVLNM
nd | 0/6 | 0/18 | GNTLNSYGMS | VIYSDGHRTFYGDSVK | QQAAGTFDS
nd | 0/6 | 0/18 | GQDINEFGIS | VIYADGIRNQYADSVK | GQNGFFFDI
nd | 0/6 | 0/18 | GFELNSYGIS | VIYSDGRRTFYGDSVK | DRAAGTFDL
nd | 0/6 | 0/18 | GFCLNSYGIS | VIYSDGRRTFYGDSVK | GRAAGTFDT
nd | 0/6 | 0/18 | GFTLNEKGIS | VIYSDGLRTFYGDSVK | GRAAGTFSS
nd | 0/6 | 0/18 | GFCLNSYGIS | VIYADGRRTFYYDSVK | GRAAGTNKS
nd | 0/6 | 0/18 | GFALNSYGIS | VIYSDGRRTFYGNSVK | GRAAGTFDS
nd | 0/6 | 1/18 | RANLNDYGIS | VIYSDGRRTFYSDSVK | GRAALTFDS
nd | 0/6 | 0/18 | GNTGNSYGIS | VIYADGRRTMYGDSVK | GRAAGTNKS
nd | 0/6 | 0/18 | GHTLNSYGIS | VIYSDGRRTFYDDSVK | GQLANTFDS
nd | 0/6 | 0/18 | GFTLNSYGIS | VIYSDGPRTFYSDSVK | GRAGGTFDS
nd | 0/6 | 0/18 | GFTLNDYGIS | VIYSDGRRTFYGDSVK | GRLAGTFWS
nd | 0/6 | 1/18 | GFTPNSYGIS | VIYSDGRRTFYGDSVR | GRAAGTMDK
nd | 0/6 | 0/18 | GFTLNSYGIS | VIYSDGYRTFYGDSVE | GRGDGTFDS
nd | 0/6 | 1/18 | GFNLDEFGIS | VIYADGMRTAYSQDVK | GQHVEFTVS
nd | 0/6 | 0/18 | GFDINEYGIS | VIYADGTKTAYANTVK | GKYVGVFVD
nd | 0/6 | 0/18 | GFTLNSYGIS | VIYSDGIRTMYIDSVR | GEAAGTFFS
nd | 0/6 | 0/18 | GFTLNSAGIS | VIYSDGRRTFYSDSVK | GRAGGTFDS

A selection of 4 entries from above:

CDR-H1	CDR-H2	CDR-H3	mean log10 Kd (nM)	detected	control signals
GFTLNDYGIS	VIYSDGRRTFYSDSVK	GRAAGFFMS	nd	0/6	0/18
GFDLNEYGIS	VIYADGMRTAYSDDVK	GNVAGTFDM	-0.68	6/6	0/18
GFTLNEYGIS	VIYSDGRRTMYSDSVK	GRAAGTFDS	1.14	6/6	0/18
GFDLNEYGIS	VIYADGLRTSYDDSVK	GELAGTFDQ	-0.38	6/6	0/18

As a blank, each scFv also met three strains without target: over all heavy chain designs, 1% of these pairings were detected, typically at 2.08 and seldom below 0.84. Also given: how often the same scFv was detected with the empty control strains. In the paper, a design with two or fewer of six values counts as a poor binder.